Here are results for 113 molecules from PubChem BioAssay AID1347056 (Sanford-Burnham Center for Chemical Genomics, 2019).

The list shows a part of the results, in another mix than the full data. Activity calls are given as the source filed them.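 Rule for the calls: active = compounds whose plate-normalised and pattern-corrected inhibition of the luciferase reporter signal at the single screening dose is 50% or more; inactive = the rest.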

This assay is described as follows: inhibitors of TROY-driven NF-kB signaling, primary screen, Q293 LMP1-TROYcd cells, NF-kB luciferase, uHTS (AID 1347056). Particulars: Q293 LMP1-TROYcd NF-kB luciferase reporter, 4 h; at 10 µM; stronger effect = higher value. A general note: A reporter such as luciferase makes a cellular process visible.
By inhibition is commonly meant the change of the read-out against control, counted positive when it falls. As for `CN(C)C1(CNC(=O)c2ccc(S(C)(=O)=O)cc2)CCCCC1`, the inhibition is inactive: 11.2%. In the case of `O=C(/C=C/c1ccccc1)OC1CN2CCC1CC2` (stereo not drawn), the inhibition is inactive: -23.3%. As to `CCCC1OP(=O)(Nc2ccccc2)OCC1CC` (stereo not drawn), the inhibition was inactive: 4.07%.

Turning to `NC(=O)Nc1ccc([As](=O)(O)O)cc1`, the inhibition is inactive: 3.23%. Next, `N#CCCN(C(=O)COC(=O)C(O)(c1ccccc1)c1ccccc1)c1ccc(F)cc1`: inactive: -13.2%; `CN(C(=O)Cc1ccccc1)[C@@H]1CC[C@]2(CCCO2)C[C@H]1N1CCCC1`: inactive: -12.9%; `CCOP1(=S)c2c(C)nn(CCC#N)c2N=C(c2ccc(F)cc2)N1C` (stereo not drawn): inactive: -21.7%. Regarding `O=[N+]([O-])c1ccc2c(c1)nnn2O`, the inhibition was inactive: 3.13%. `CN(C)C(=O)c1cc([N+](=O)[O-])cc2c1-c1c(cc([N+](=O)[O-])cc1[N+](=O)[O-])C2=O`: the inhibition is inactive: 48%. For `CN(C(=O)Cc1ccc(Cl)c(Cl)c1)[C@H]1CC[C@@]2(CCCO2)C[C@@H]1N1CCCC1`, the inhibition was inactive: 4.7%. For the molecule `CCOP1(=S)c2c(C)nn(CCC#N)c2N=C(c2ccccc2F)N1C` (stereo not drawn), the inhibition was inactive: 3.83%. In the case of `O=P(Nc1nccs1)(Oc1ccccc1)Oc1ccccc1`, the inhibition is inactive: -2.52%. Next, `O=P(Nc1nccs1)(c1ccccc1)c1nc2ccccc2s1` (stereo not drawn): inactive: 1.37%.

`CS(=O)(=O)c1cc([N+](=O)[O-])c2no[n+]([O-])c2c1`: the inhibition is inactive: -5.73%. Consider `Nc1ccccc1[As](=O)(O)c1ccccc1`, for which the inhibition is inactive: -8.31%. Take `O=C(O)COc1ccc([As](=O)(O)O)cc1[N+](=O)[O-]`: the inhibition was inactive: -16.7%. For `Nc1cccc2c([As](=O)(O)O)cccc12` the value was inactive: -3.21%. For `Cc1ccc(NCCc2c([N+](=O)[O-])cc([N+](=O)[O-])cc2[N+](=O)[O-])cc1` the value was inactive: 17.6%. Next, `CCCOP(=S)(Nc1nc(N)cc(=O)[nH]1)OCCC`: inactive: -6.69%; `COc1cc(C2NCCC3(OCCO3)C2(C)C)cc(OC)c1OC` (stereo not drawn): inactive: 20.1%. Turning to `CCOP(=O)(Nc1cccc2ccccc12)OCC`, the inhibition is inactive: 2.02%. For `O=C(OC1CN2CCC1CC2)c1ccc(Cl)cc1` (stereo not drawn), the inhibition was inactive: -4.48%.

Consider `O=[As](O)(O)c1cccnc1`, for which the inhibition is inactive: 10.4%. For `COc1cc(C(=O)NCC2(N3CCOCC3)CCCCC2)cc(Cl)c1OC(C)C`, the inhibition was inactive: 11.4%. Turning to `CS(=O)(=O)c1ccc(Cl)c(NC(=O)COC(=O)C(O)(c2ccccc2)c2ccccc2)c1`, the inhibition is inactive: -13.9%. For `Cc1cccc(OCC(=O)OC2CN3CCC2CC3)c1` (stereo not drawn) the value was inactive: -8.87%.

Take `O=[As](O)(c1cccc(O)c1)c1cccc(O)c1`: the inhibition is inactive: 0.26%. As for `Cc1ccccc1CN(C)C(=O)COC(=O)C(O)(c1ccccc1)c1ccccc1`, the inhibition was inactive: 10.3%. As to `C[C@H]1OP(=O)(Oc2ccccc2)C[C@@H]2O[C@@H]21` (stereo partly drawn), the inhibition was inactive: -8.52%. For `C[C@@H]1C=CCP(=O)(Oc2ccccc2)O1` (stereo partly drawn), the inhibition is inactive: -14.8%.

Turning to `CC(=O)c1ccc(N2CC2c2ccncc2)cc1` (stereo not drawn), the inhibition was inactive: 15.7%.

For the molecule `N#C/C(=C\c1ccc(N(CCBr)CCBr)cc1)C(N)=O`, the inhibition was inactive: -17.8%. On to `COC(=O)C1(C)COP(=O)(NCc2ccccc2)OC1` (stereo not drawn), for which the inhibition is inactive: -3.56%. Turning to `CC(=O)Nc1ccc([As](=O)(O)O)c(O)c1`, the inhibition is inactive: -12.1%. In the case of `CC(=O)Nc1ccc(Oc2c([N+](=O)[O-])cc([N+](=O)[O-])cc2[N+](=O)[O-])cc1`, the inhibition is inactive: -0.35%.

`O=P1(Nc2nc3ccc(Cl)cc3s2)COc2ccccc2O1` (stereo not drawn): the inhibition is inactive: -14.5%. Next, `CCOc1ccc(C2=NCC(CBr)S2)cc1` (stereo not drawn): inactive: 5.63%.

In the case of `CC(C)(C)C(=O)NC(Sc1ccccc1)C(Cl)(Cl)Cl` (stereo not drawn), the inhibition is inactive: -3.83%. For the molecule `CCc1cc(O)c([N+](=O)[O-])c(C)c1[N+](=O)[O-]`, the inhibition is inactive: 7.96%. For the molecule `O=C(OC1CN2CCC1CC2)c1ccccc1` (stereo not drawn), the inhibition is inactive: -18.6%. Turning to `CCC(=O)N1C2C3N(C(=O)CC)C1C1N(C(=O)CC)C(C(N1C(=O)CC)N3C(=O)CC)N2C(=O)CC`, the inhibition was inactive: 12.4%. Next, `COC(=O)c1cc2c(s1)N=C(c1ccccc1)N(C)P2(=O)N1CCOCC1` (stereo not drawn): inactive: 2.25%. On to `Cc1ccc(OP(=O)(Nc2ccccn2)Oc2ccc(C)cc2)cc1`, for which the inhibition was inactive: 12.7%. On to `CC(=O)NC(SC(=S)N(CC(C)C)CC(C)C)C(Cl)(Cl)Cl` (stereo not drawn), for which the inhibition was inactive: 12.6%. Next, `CC(NC(=O)COC(=O)C(O)(c1ccccc1)c1ccccc1)c1ccccc1` (stereo not drawn): inactive: -15.2%; `Cc1ccccc1OP(=O)(Nc1ccccn1)Oc1ccccc1C`: inactive: 26.4%; `O=c1c2cc([N+](=O)[O-])ccc2[nH]c2c([N+](=O)[O-])cc([N+](=O)[O-])cc12`: active: 75.1%. For the molecule `CN(C)C(=O)Oc1noc2ccccc12`, the inhibition is inactive: 5.08%. In the case of `c1ccc(-c2nn[nH]n2)c(-c2nn[nH]n2)c1`, the inhibition is inactive: 2.63%.

In the case of `Cc1ccc(NP(=O)(Oc2cccc(C)c2)Oc2cccc(C)c2)nc1`, the inhibition was inactive: 6.8%. As for `CCNC(=S)/N=C(\N)N[N+](=O)[O-]`, the inhibition was inactive: -5.06%. In the case of `O=C(NC1CCS(=O)(=O)C1)NP(=S)(Oc1ccccc1)Oc1ccccc1` (stereo not drawn), the inhibition is inactive: -13.4%. For `O=P1(N(CCCl)CCCl)OCCC2CCCCN21` (stereo not drawn), the inhibition is inactive: -8.27%.

As to `O=[As](O)(c1ccccc1)c1ccc(O)cc1`, the inhibition was inactive: -1.94%. For `O=[N+]([O-])c1ccc(O)c(/C=N/Nc2ccc([N+](=O)[O-])cc2[N+](=O)[O-])c1` the value was inactive: 41.1%. Turning to `O=[N+]([O-])c1ncn(CCn2cnc([N+](=O)[O-])n2)n1`, the inhibition was inactive: 2.96%. As to `CC(=O)NC(SC(=S)N(C)C)C(Cl)(Cl)Cl` (stereo not drawn), the inhibition was inactive: -20.6%.

In the case of `O=C(OC1CN2CCC1CC2)c1cccc(Cl)c1` (stereo not drawn), the inhibition is inactive: 3.41%. Take `C(Cc1nn[nH]n1)Cc1nn[nH]n1`: the inhibition is inactive: 2.87%. `Nc1ccc([As](=O)(O)c2ccc([N+](=O)[O-])cc2)cc1`: the inhibition was inactive: -5.69%. As for `O=P(Nc1ccccn1)(c1ccc(Br)cc1)c1ccc(Br)cc1`, the inhibition is inactive: -14.7%. Turning to `CN(C)C1(CNC(=O)c2ccc(Cl)c(S(N)(=O)=O)c2)CCCCC1`, the inhibition was inactive: 6.71%. For `COc1ccc(N)c([N+](=O)[O-])c1[N+](=O)[O-]`, the inhibition was inactive: 1.41%.

As to `Nc1ccc(CCCCOc2ccccc2)cc1`, the inhibition was inactive: -48.8%. Take `O=P(Nc1nc2ccccc2s1)(c1ccccc1)c1ccccc1`: the inhibition is inactive: -17.5%. In the case of `C[C@H]1OP(=O)(Oc2ccccc2)[C@H](O)[C@H](O)[C@H]1N=[N+]=[N-]` (stereo partly drawn), the inhibition is inactive: 3.22%. Take `CC(C)C(=O)NC(Sc1ccccc1)C(Cl)(Cl)Cl` (stereo not drawn): the inhibition is inactive: 3.94%. As for `O=P(Nc1nccs1)(c1ccccc1)c1ccccc1`, the inhibition is inactive: -6.39%. For `c1nnnn1CCn1cnnn1` the value was inactive: -32.3%; for `CCN(/C(=N/P(=O)(N1CCOCC1)N1CCOCC1)N1CCOCC1)c1ccc(OC)cc1`, inactive: 11.6%; for `Nc1ccc([As](=O)(O)c2ccc(N)cc2)cc1`, inactive: -6.5%.

Regarding `C[N+]1=C2C=CC=CC=C2SC12C([N+](=O)[O-])=CC([N+](=O)[O-])=C[C-]2[N+](=O)[O-]` (stereo not drawn), the inhibition is inactive: -11.4%.

On to `CC1CCN(C(=O)Oc2c(Cl)cc(Cl)c3cccnc23)CC1`, for which the inhibition is inactive: -36%. Next, `c1cc(-c2nn[nH]n2)ccc1-c1nn[nH]n1`: inactive: -15.6%; `CC(C)c1nc(Nc2ccccc2)n(P(=O)(N(C)C)N(C)C)n1`: inactive: 5.27%; `CC(C)=N/N=C(\N)N[N+](=O)[O-]`: inactive: -10.9%.

With `CN(C)C(=O)OCCc1n(C)cc[n+]1C`, the inhibition was inactive: 3.2%. For `COc1ccc(C2=NCC(CBr)S2)cc1` (stereo not drawn), the inhibition is inactive: 19.8%. Next, `Cc1ccc(NP(=O)(Oc2ccccc2)Oc2ccccc2)nc1`: inactive: 12.5%; `CCc1nc2c(n1)c1c(non1O)c1c2no[n+]1[O-]`: inactive: 7.25%. With `O=[N+]([O-])c1cc([N+](=O)[O-])c(CCNc2ccccc2)c([N+](=O)[O-])c1`, the inhibition was inactive: 13.2%. Turning to `O=[N+]([O-])c1cccc2n[nH]nc12`, the inhibition is inactive: 9.18%. For `CC(=O)N1C2C3N(C(C)=O)C1C1N(C(C)=O)C(C(N1C(C)=O)N3C(C)=O)N2C(C)=O` the value was inactive: 4.61%; for `O=[N+]([O-])c1ncn(CCn2ncnc2[N+](=O)[O-])n1`, inactive: 0.4%; for `CC(C)(C)C(=O)NC(Sc1ccncn1)C(Cl)(Cl)Cl` (stereo not drawn), inactive: -6.11%. For `O=C(O)CNc1ccc([As](=O)(O)O)cc1` the value was inactive: 2.99%; for `COC(=O)C1(C)COP(=O)(Nc2ccccc2)OC1` (stereo not drawn), inactive: 0.54%. As for `O=[N+]([O-])c1cccc(NC2=NCC(CBr)S2)c1` (stereo not drawn), the inhibition was inactive: -1.74%. In the case of `O=P1(N(CCCl)CCCl)OCCCS1` (stereo not drawn), the inhibition is inactive: 9.82%.

For `O=C(Nc1cc([As](=O)(O)O)ccc1O)c1ccccc1`, the inhibition was inactive: 13.6%. Take `Nc1cccc2ccc([As](=O)(O)O)cc12`: the inhibition is inactive: 0.04%.

Consider `CCN(N=Nc1nonc1N)c1nonc1N`, for which the inhibition was inactive: -6.81%.

Turning to `O=P(Nc1nc2ccc(Cl)cc2s1)(c1ccccc1)c1ccccc1`, the inhibition is inactive: -10.1%. Consider `CN(C)P(=O)(N(C)C)n1c(Nc2ccccc2)nnc1-c1ccccc1`, for which the inhibition is inactive: -34.4%. Consider `CC(=O)Nc1ccc([As](=O)(O)O)cc1`, for which the inhibition was inactive: -11.8%.

As to `O=C(O)c1ccccc1[As](=O)(O)O`, the inhibition was inactive: -21.3%.

Take `CCCC1OP(N)(=O)OCC1CC` (stereo not drawn): the inhibition was inactive: 11%. As for `Cc1cc(SC(NC(=O)c2ccc(F)cc2)C(Cl)(Cl)Cl)ncn1` (stereo not drawn), the inhibition is inactive: -0.98%. Take `CCOP(=O)(Nc1ccccc1)OCC`: the inhibition was inactive: 14.2%. As to `Cc1ccc(NP(=O)(Oc2ccccc2F)Oc2ccccc2F)nc1`, the inhibition was inactive: -5.27%. As to `CN(C(=O)Cc1ccc(Cl)c(Cl)c1)[C@H]1CCCC[C@@H]1N1CCCC1`, the inhibition is inactive: 4.57%. For `Oc1ccccc1CNc1ccccn1`, the inhibition was inactive: -26.6%. As to `O=C(NC(Sc1ccncn1)C(Cl)(Cl)Cl)c1ccccc1` (stereo not drawn), the inhibition was inactive: 10.4%. For `Nc1cc(N)c2nonc2c1[N+](=O)[O-]`, the inhibition was inactive: 13.9%. On to `CC(C)CC(=O)NC(Sc1ccc(Cl)cc1)C(Cl)(Cl)Cl` (stereo not drawn), for which the inhibition was inactive: -7.12%. With `O=[N+]([O-])C1C(O)C(O)C([N+](=O)[O-])C(O)C1O` (stereo not drawn), the inhibition was inactive: 8.71%. On to `CN(C(=O)Cc1ccc(Cl)c(Cl)c1)[C@H]1CCCC[C@H]1N1CCCC1`, for which the inhibition is inactive: 8.67%.

`Cc1ccc(N/C(=N/P(=O)(N2CCOCC2)N2CCOCC2)N2CCOCC2)cc1`: the inhibition was inactive: -4.18%. With `NC(=O)c1cc([N+](=O)[O-])cc([N+](=O)[O-])c1N`, the inhibition is inactive: -25.5%. For `CN1CCCC(OC(=O)C(c2ccccc2)c2ccccc2)C1` (stereo not drawn) the value was inactive: 3.55%. For `Clc1ccc(Cl)c(NC2=NCC(CBr)S2)c1` (stereo not drawn) the value was inactive: 10.7%; for `COc1ccccc1OP(=O)(Nc1ccc(C)cn1)Oc1ccccc1OC`, inactive: -7.67%. For `Cc1ccc(OP(=O)(Nc2nccs2)Oc2ccc(C)cc2)cc1`, the inhibition was inactive: 2%.
